Test results reported in patent US12485126B2, “Combination for treating cancer” (INSERM (Institut National de la Santé et de la Recherche …, priority 2018, dated 2025).

Key:
[1] = system: EGFR^T790M/L858R-driven LUAD; experiment: Tumoral area and histopathology of lungs in EGFR^T790M/L858R; CCSP-rtTA mice; format: in vivo
Experimental: Tet-on-EGFR^T790M/L858R; CCSP-rtTA and the Kras^G12D/+; Stat3^f/f mice were already described (11,12,29).
The induction of the tumors in EGFR model was done by administration of Doxycyline pellets in the diet (A03 at 1 g/Kg Doxycycline Hyclate, Safe, France) in mice during 8 weeks and maintained all time during the treatments with the different drugs.
Osimertinib (Cliniscience, France) was given by gavage early in the morning 5 days a week (from Monday to Friday) by gavage at 5 mg/kg/day. Antibodies diluted in PBS against NOTCH1 (NRR1) and NOTCH3 (NRR3) were administered by IP injection. […]
For routine histological analysis, lung lobes were fixed in 10% buffered formalin (Sigma, USA), embedded in paraffin. […] For quantification of tumors in the H&E, the five lobes of the lungs (4 right and 1 left) were placed in a similar plane and a single section across all the lobes was examined by H&E. Tumoural- and total lung area were measured using Image J software of the whole slide scan. For pathological analysis of H&E, classical citoarchitectural histological features such as invasion or high mitotic rate were applied by the expert pathologist M. C., to identify and quantify the adenocarcinomas. […] For each tumor, five high-magnification fields were scored. We scored on average 1500 cells per tumor in two categories: positive or negative also using Image J software. […]

[2] = system: EGFR^T790M/L858R-driven tumors; experiment: Immunohistochemistry of tumors from treated EGFR^T790M/L858R mice; format: in vivo; details: compared to vehicle treated mice
Experimental: Osimertinib (Cliniscience, France) was given by gavage early in the morning 5 days a week (from Monday to Friday) by gavage at 5 mg/kg/day. Antibodies diluted in PBS against NOTCH1 (NRR1) and NOTCH3 (NRR3) were administered by IP injection. NRR1 at 5 mg/kg/day every 5 days and NRR3 at 15 mg/kg/day every Monday and Thursday respectively, in both cases during 5 weeks. Mice were scarified 4 h after the last treatment and samples were obtained for immunohistochemical and western blot analysis.
For routine histological analysis, lung lobes were fixed in 10% buffered formalin (Sigma, USA), embedded in paraffin. Consecutive 3 μm-thick sections were cut and stained with hematoxylin and eosin (H&E) or used for IHC. For quantification of tumors in the H&E, the five lobes of the lungs (4 right and 1 left) were placed in a similar plane and a single section across all the lobes was examined by H&E. Tumoural- and total lung area were measured using Image J software of the whole slide scan. For pathological analysis of H&E, classical citoarchitectural histological features such as invasion or high mitotic rate were applied by the expert pathologist M. C., to identify and quantify the adenocarcinomas. […] For each tumor, five high-magnification fields were scored. We scored on average 1500 cells per tumor in two categories: positive or negative also using Image J software. […]

COc1cc2ncnc(Nc3ccc(F)c(Cl)c3)c2cc1OCCCN1CCOCC1 [gefitinib]
tumoral area ([1]; five weeks of treatment, DBZ/gefitinib experiment, control group 42%): 52% | amount of LUADs on average per mouse ([1]; histopathological analysis, controls or gefitinib 31): did not affect the amount of LUADs | IHC staining of proteins (HES1, Ki67, pERK, pAKT) [2]: did not impact on the staining of any proteins
